Measured values reported in US12486266B2, “Crystalline form of JAK inhibitor and application thereof” (Zhuhai United Laboratories CO., LTD., priority 2020, dated 2025).

Tests used:
[1] = test system: adjuvant induced arthritis (AIA) rat model; settings: in vivo, po
[2] = test system: collagen induced arthritis (CIA) in mice; settings: mouse, in vivo

O=C(Nc1nc2cccc(C3CCC4(CC3)CN(C(=O)[C@@H]3CC3(F)F)C4)n2n1)C1CC1
tolerance of rats (body weight course) [1]: good tolerance | effect on the body weight of mice [2]: little effect on the body weight
